## AlphaSeq binding of Ab-14 light chain variants to a spike HR2 peptide

Binding partner: SARS-CoV-2 spike HR2 peptide, sequence PDVDLGDISGINAS.

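Phage display of a naive human antibody library on the peptide gave the parent. Designed CDR sequences, proposed from the first random library and measured here. Several design methods are mixed in this list. The assay is AlphaSeq: two haploid yeast populations carry antibody and antigen on their surface. Binding brings cells together so that they mate, and sequencing counts the barcode pairs among the diploids. A regression on co-assayed BCL2-family reference pairs converts the normalised counts of each replicate to an apparent Kd. Each pool was mated in six replicate cultures.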

Each scFv is VH, the linker GGGGSGGGGSGGGGS, VL, as in the parent Ab-14, and differs from it in the CDRs of the light chain only.
VH: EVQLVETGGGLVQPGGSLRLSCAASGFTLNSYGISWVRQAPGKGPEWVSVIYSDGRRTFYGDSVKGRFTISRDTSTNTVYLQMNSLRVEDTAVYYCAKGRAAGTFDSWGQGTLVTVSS
VL: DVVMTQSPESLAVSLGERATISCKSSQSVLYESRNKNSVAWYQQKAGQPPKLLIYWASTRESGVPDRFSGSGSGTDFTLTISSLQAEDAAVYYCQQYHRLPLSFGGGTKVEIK

The parent's light chain CDRs are KSSQSVLYESRNKNSVA, WASTRES, QQYHRLPLS; each variant's own CDRs replace them letter for letter.
The Kd shown is the geometric mean over detected replicates; a lower Kd is a better binder.
A pair that was not seen in any replicate is written "nd"; this usually means weak binding, but a binder can also be missed.

| CDR-L1 | CDR-L2 | CDR-L3 | Kd (apparent) | detected |
|---|---|---|---|---|
| KLPQSHLYESRNKNSVA | NASQRES | QQYHRLPLS | 720 pM | 6/6 |
| KIYYHGVLDGNEQNGIA | GQDIRQG | QQYYRLPLV | 230 nM | 6/6 |
| KIYQFGLNHQTSTNSIA | DQECREA | QQYDRLPLS | 7.8 nM | 6/6 |
| HFSGGMNQGSSAEHNIA | EGTYAEE | QQYARLPLQ | 3.3 nM | 6/6 |
| KSWQSLLYESRNKNSVA | WASTRES | QQYHRLPLS | 93 nM | 2/6 |
| KLGGVTEYEMRNLNSVA | QMTTRES | QQYHRLPLS | 1.8 nM | 6/6 |
| IVTQLMLWGWHAKNSIA | EAQTRVN | QQYDRLPLF | nd | 0/6 |
| MIYGANRELGLAANSIA | DNVTRYN | QQYERLPLS | 24 nM | 4/6 |
| KIGMTLNTLMHKKNNVA | DLVTREQ | QQYHRLPLS | 6.1 nM | 6/6 |
| KLSQSWLYGQRNANSVA | NASQREE | QQYHRLPLS | 650 pM | 6/6 |
| KVSQSMLYESRNKNSVA | NASQRES | QQYHRLPLS | 700 pM | 6/6 |
| KVRQSTLYESRNKNSVA | WASTRES | QQYHRLPLS | 6.2 nM | 6/6 |
| TIGSGTNGEKFQSNSVA | QASTREE | QQYHRLPLS | 1.4 nM | 6/6 |
| KFSQSWLYESRNSNSVA | NASQRES | QQYHRLPLS | 680 pM | 6/6 |
| KMSQSVWYEERNKNSVA | NASKRES | QQYHRLPLS | 2.5 nM | 6/6 |
| MLSGVLHMLGQKKNSIA | DLVMRAN | QQYHRLPLQ | 44 nM | 5/6 |
| MIEIIQDGYDEMRSAIA | DTNLVRM | QQYYHLPLM | nd | 0/6 |
| KLSQSDLYESRNKNSVA | GASTRES | QDYHRLPLS | 2.2 nM | 6/6 |
| KLSQSGLYESRNKNNVA | HASTRES | QQYHRLPLS | 580 pM | 6/6 |
| KSSQSVLMEYENFNSVA | WADTRES | QEYHRLPLS | nd | 0/6 |
| KTSKSVLYEWRNKNSVA | WASTRES | QQYHRLPLS | 64 nM | 4/6 |
| KWKQSVLNESRNKNSFA | QASTRES | QQYHRLPLS | 2.3 nM | 6/6 |
| KSSQSVLYETRNKNSVA | AGSTRES | QQYHRLPLS | 200 nM | 1/6 |
| KLSQSVLDESRNKNSVA | WASTRES | QQYHRLILP | 60 nM | 1/6 |
| TLYGLSMSMSKNKNNVA | EMSTRER | QQYDRLPLQ | 4.6 nM | 6/6 |
| TISQMFLGESRNRNSVA | QASLRES | QSYDRLPLS | 3.4 nM | 6/6 |
| KISQMIRVGSTASNSIA | EEQTRAK | QQYHRLPLS | 140 nM | 4/6 |
| KLLQSWLYESRNKNSVA | HASTREQ | QQYHRLPLS | 970 pM | 6/6 |
| KSMQEWEYQSRNKNSVA | HASKRES | QQYHRLPLS | 4.9 nM | 6/6 |
| KLSSSWLMESRNMNSVA | QASQRER | QQYHRLPLS | 950 pM | 6/6 |
| KLSQSWLYESRNKNPVA | GASFRES | QQYHRLPLS | 29 nM | 6/6 |
| KTSQSVLYESRNKNSVA | WASTRES | QQYHPLPLS | nd | 0/6 |
| TISQSAQQESHNKNSVA | DLSVRGS | QQYDRLPLS | 1.6 nM | 6/6 |
| QITNQTAGISNGIASIA | EETNLTD | QQYNHLPLS | 230 nM | 6/6 |
| KIQMFLGTLMEQINSIA | NSEVIVQ | QSYFRLPLS | nd | 0/6 |
| KIGQQVTYESTNHNAIA | QMTTRES | QQYHRLPLS | 2.7 nM | 6/6 |
| KLSMVTGHMSKAKNNVA | EMVTREE | QQYERLPLS | 3.9 nM | 6/6 |
| KSSQSVLYYSRNKNSVA | SASTRES | TQYTRLPLS | 3.2 µM | 2/6 |
| KLSMITGHMSVSKNNVA | EMETRAN | QQYDRLPLS | 6.8 nM | 6/6 |
| KLEQGALYESRNKNSVA | GASTRES | QQYHRLPLS | 640 pM | 6/6 |
| KSQQSVLYESRNKNSVA | WASTRES | QTYHRLPLS | 270 nM | 2/6 |
| KNSQSWLYESRNKNSVA | GASTRES | QQYHRLPLS | 1.1 nM | 6/6 |
| KVSQSNLGESRMKNSVA | HASQRES | QQYHRLPLS | 1.5 nM | 6/6 |
| KVSQEWLYESRNKNSVA | DASTRES | QQYHRLPLS | 290 pM | 6/6 |
| MLLQATMYGERNRNSVA | HASTRED | QEYHRLPLI | 4.8 nM | 6/6 |
| KLSQSYLYESRMKNSVA | NASTRES | QQYHRLPLS | 4.2 nM | 6/6 |
| KISQSMEYESRNVNSVA | YASTREL | QQYHRLPLS | 4.0 nM | 6/6 |
| TISTSMRYESTLKNAIA | NAQTRES | QQYHRLPLS | 4.1 nM | 6/6 |
| KHSIGVWGGDRNKNSVA | DASTRES | QQYHRLPLS | 1.2 nM | 6/6 |
| KVSQSELYESRNKNSVA | NASQRLS | QQYHRLPLS | 730 pM | 6/6 |
| KLEGSQLYESRNKNSVA | NASTRES | QQYHRLPLS | 1.7 nM | 6/6 |
| HISPSFMVESRLKNSVA | QTETRVS | QQYDRLPLS | 1.7 nM | 6/6 |
| KSSQSVLWESRNKNHVA | WASTRES | QQYHRLPLS | nd | 0/6 |
| KLSQSELYESRNKNSVA | NASTRMM | QQYHRLPLS | 1.0 nM | 6/6 |
| KSSQSVLYEQRNKNSVA | WASTRWS | QQYHRLPLS | 6.4 nM | 6/6 |
| KISQMYRYEQQNHSSIA | EANTRLQ | QSYHRLPLS | 29 nM | 5/6 |
| KSSKSNLMESRNKNSVA | KASTRES | QQYHRLPLS | 39 nM | 6/6 |

The first 4 variants above that were never detected:

CDR-L1,CDR-L2,CDR-L3,Kd (apparent),detected
IVTQLMLWGWHAKNSIA,EAQTRVN,QQYDRLPLF,nd,0/6
MIEIIQDGYDEMRSAIA,DTNLVRM,QQYYHLPLM,nd,0/6
KSSQSVLMEYENFNSVA,WADTRES,QEYHRLPLS,nd,0/6
KTSQSVLYESRNKNSVA,WASTRES,QQYHPLPLS,nd,0/6

The range of this assay differs from that of the first round, and the authors advise against merging the two.
Three control strains display no target. For all light chain designs, 4% of the pairings with them gave a signal, with a median of 430 nM and one signal in twenty below 38 nM, so weak values seen in few replicates may be background.
In the paper, a design with two or fewer of six values counts as a poor binder.

Reference: Li et al. 2023, doi:10.1038/s41467-023-39022-2. File: FLAb, binding data.